From PMC12097015, “Development of MDM2‐Targeting PROTAC for Advancing Bone Regeneration” (Advanced Science, 2025)

System: rabbit calvaria
Assay: Rabbit calvarial vertical onlay graft model
Assay type: in vivo, New Zealand white rabbits
Conditions: eight weeks, CL144 10 μΜ or rhBMP‐2 3.85 μΜ soaked on BCP carrier
Text: ‐Establishment of Vertical Onlay Graft Rabbit Model: The experimental protocol was approved by the Institutional Animal Care and Use Committee of Yonsei Medical Center, Seoul, Korea (IACUC Approval No. 2024–0146). Total six male, New Zealand white rabbits, weighing ≈2.8–3.2 kg were used for the rabbit calvaria onlay graft model. Rabbits were kept in separate cages under standard laboratory conditions with free access to food and water and provided standard meals according to the ARRIVE guidelines. The animals were sacrificed eight weeks postoperatively (n = 6), and each rabbit was divided into three different groups. Commercially available rhBMP‐2 were used for the positive control (Cowellmedi, Korea). CL144 and BMP‐2 solutions (200 µg) were soaked onto 0.1 g a biphasic calcium phosphate carrier (BCP; Osteon III; Genoss, Korea) for 10 min before grafting. […]
‐Radiographic analysis: A single‐blinded examiner conducted all the measurements. […] The volume of the newly formed bone within the cylinders was measured.
‐Histologic analysis: Specimens were decalcified in Calci‐Clear Rapid (National Diagnostics, 305 Patton Drive, USA) for two weeks. […] Within the cylinder, the total augmented area, area and proportion of newly formed bone, and residual graft materials were measured as previously described.^[ [34] ^]

Q: What does the source list for “rhBMP‐2: recombinant human bone morphogenetic protein-2, positive control”?
A: amount of new bone (histomorphometric analysis): 35.29 ± 7.67%; new bone volume (micro‐CT) (n = 6): 48.07 ± 6.66 mm^3
